# Reference: PubChem BioAssay AID588456 (National Center for Advancing Translational Sciences (NCATS), 2011)
# Chains of the proteins cited; added tags and fusions are not shown.
# UniProt O89049, whole entry: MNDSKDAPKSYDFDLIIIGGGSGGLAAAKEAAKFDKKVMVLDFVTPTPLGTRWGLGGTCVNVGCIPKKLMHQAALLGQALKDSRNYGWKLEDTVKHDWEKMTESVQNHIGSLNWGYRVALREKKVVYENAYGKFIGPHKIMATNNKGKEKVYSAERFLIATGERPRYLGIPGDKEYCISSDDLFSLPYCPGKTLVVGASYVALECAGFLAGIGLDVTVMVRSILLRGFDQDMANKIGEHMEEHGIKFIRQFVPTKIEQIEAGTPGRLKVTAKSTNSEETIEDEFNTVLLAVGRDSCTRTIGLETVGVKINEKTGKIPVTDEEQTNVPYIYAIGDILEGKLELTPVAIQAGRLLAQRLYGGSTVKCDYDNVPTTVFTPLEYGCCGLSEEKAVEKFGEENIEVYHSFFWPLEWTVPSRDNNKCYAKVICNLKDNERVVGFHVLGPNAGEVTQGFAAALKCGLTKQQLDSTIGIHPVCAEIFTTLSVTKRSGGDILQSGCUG
# Only a part is listed here, and it is no random draw. Some tests of the compounds listed are not included; inactive here does not mean inactive elsewhere. Activity calls are given as the source filed them. Calls come from the whole dose curve; as a rule, active = well fitted inhibition curve with a large enough effect; inconclusive = small, poorly fitted or top-dose-only effect; inactive = no such curve, though single readings can be large or run the other way.
# Target: Thioredoxin reductase 1, cytoplasmic (Rattus norvegicus) (UniProt O89049)
# Experiment: qHTS Assay for Substrates of Mammalian Selenoprotein Thioredoxin Reductase 1 (TrxR1): qHTS; note: nearly all actives have a fitted effect of over 50% in size
# Conditions: purified TrxR1 substrate turnover, NADPH consumption readout
# [1] = at 114 µM (top of the series) unless noted
# % is set by controls: 0 for no effect and ±100 for the full control effect.
smiles,measurement,setting,value
O=C(NCC1(N2CCCCC2)CCCCC1)c1cc(F)c(F)cc1Cl,"activity change, negative = substrate turnover",[1],inactive: 8.63% [at 0.0914 µM]
C=CCN1CCN(CCOC(=O)C(O)(c2ccccc2)c2ccccc2)CC1,"activity change, negative = substrate turnover",[1],inactive: -0.723%
CCOc1cccc(C(=O)NCC2(N(C)C)CCCCC2)c1,"activity change, negative = substrate turnover",[1],inactive: -1.88%
COc1ccc(C(=O)NCC2(N(C)C)CCCCC2)cc1,"activity change, negative = substrate turnover",[1],inactive: 3.49%
O=C(NCC1(N2CCCCC2)CCCCC1)c1cccc(Br)c1,"activity change, negative = substrate turnover",[1],inactive: 3.34%
Cc1cc(C(=O)NCC2(N3CCCCC3)CCCCC2)ccc1[N+](=O)[O-],"activity change, negative = substrate turnover",[1],inactive: 9.92%
CCN1CCCC(OC(=O)C2(O)c3ccccc3C=Cc3ccccc32)C1 (configuration not stated),"activity change, negative = substrate turnover",[1],inactive: 12.3% [at 57.1 µM]
CN(C)C1CCCC1OC(=O)C(O)(c1ccccc1)c1ccccc1 (configuration not stated),"activity change, negative = substrate turnover",[1],inactive: -5.17%
CN(C)c1ccc(C(=O)NCC2(N(C)C)CCCCC2)cc1,"activity change, negative = substrate turnover",[1],inactive: 3.07% [at 57.1 µM]
CN(C)C1(CNC(=O)c2ccccc2[N+](=O)[O-])CCCCC1,"activity change, negative = substrate turnover",[1],inactive: -10.8%
Cc1ccccc1C(=O)NCC1(N2CCCCC2)CCCCC1,"activity change, negative = substrate turnover",[1],inactive: 0.737%
CCCCOc1ccccc1C(=O)NCC1(N(C)C)CCCCC1,"activity change, negative = substrate turnover",[1],inactive: -5.56%
COc1cc(SC)ccc1C(=O)NCC1(N(C)C)CCCCC1,"activity change, negative = substrate turnover",[1],inactive: 2.78%
CN(C)C1(CNC(=O)c2cccc(Cl)c2)CCCCC1,"activity change, negative = substrate turnover",[1],inactive: 2.17%
CCN(CC)CC(C)C(C)OC(=O)C(O)(c1ccccc1)c1ccccc1 (configuration not stated),"activity change, negative = substrate turnover",[1],inactive: -4.06%
CC(C)N1C(=O)CC2(CCN(CCOC(=O)C(O)(c3ccccc3)c3ccccc3)CC2)C1=O,"activity change, negative = substrate turnover",[1],inactive: 8.28% [at 57.1 µM]
Cc1ccc(C(=O)NCC2(N3CCCCC3)CCCCC2)cc1,"activity change, negative = substrate turnover",[1],inactive: 2.42%
CN(C)C1(CNC(=O)c2ccccc2F)CCCCC1,"activity change, negative = substrate turnover",[1],inactive: -4.75%
O=C(NCC1(N2CCCCC2)CCCCC1)c1cc([N+](=O)[O-])ccc1Cl,"activity change, negative = substrate turnover",[1],inactive: 3.5%
CN1[C@@H]2CC[C@H]1CC(OC(=O)C(O)(c1ccccc1)c1ccccc1)C2 (some centres not stated),"activity change, negative = substrate turnover",[1],inactive: -4.86%
COc1ccc(Br)c(C(=O)NCC2(N3CCCCC3)CCCCC2)c1,"activity change, negative = substrate turnover",[1],inactive: -0.115%
Cc1cccc(C(=O)NCC2(N(C)C)CCCCC2)c1,"activity change, negative = substrate turnover",[1],inactive: 1.86%
COc1cc(C(=O)NCC2(N(C)C)CCCCC2)cc(OC)c1OC,"activity change, negative = substrate turnover",[1],inactive: 27.4%
O=C(OCCN1CCCC1)C(O)(c1ccccc1)c1ccccc1,"activity change, negative = substrate turnover",[1],inactive: 11.5% [at 57.1 µM]
CC(C)Oc1ccc(C(=O)NCC2(N(C)C)CCCCC2)cc1,"activity change, negative = substrate turnover",at 57.1 µM (top of the series),inactive: 12.1%
same,"activity change, negative = substrate turnover",at 114 µM (top of the series),inactive: -2.2%
CN(C)c1cccc(C(=O)NCC2(N(C)C)CCCCC2)c1,"activity change, negative = substrate turnover",[1],inactive: 7.37% [at 57.1 µM]
COc1cccc(C(=O)NCC2(N3CCOCC3)CCCCC2)c1,"activity change, negative = substrate turnover",[1],inactive: -4.1%
O=C(OC1CN2CCC1CC2)C(CO)(c1ccccc1)c1ccccc1 (configuration not stated),"activity change, negative = substrate turnover",[1],inactive: -6.33%
CC(C)COc1ccc(C(=O)NCC2(N(C)C)CCCCC2)cc1,"activity change, negative = substrate turnover",[1],inactive: -0.587%
COc1ccc(Cl)cc1C(=O)NCC1(N(C)C)CCCCC1,"activity change, negative = substrate turnover",[1],inactive: -0.449% [at 57.1 µM]
COc1cccc(C(=O)NCC2(N3CCCCC3)CCCCC2)c1,"activity change, negative = substrate turnover",[1],inactive: 7.76%
COc1ccc(C(=O)NCC2(N(C)C)CCCCC2)cc1Cl,"activity change, negative = substrate turnover",[1],inactive: -1.94%
O=C(NCC1(N2CCCCC2)CCCCC1)c1cccc(Cl)c1,"activity change, negative = substrate turnover",[1],inactive: 1.78%
O=C(CBr)c1ccc(Cl)cc1,"activity change, negative = substrate turnover",[1],inactive: 3.16%
CN(C)C1(CNC(=O)c2ccc(Br)cc2)CCCCC1,"activity change, negative = substrate turnover",[1],inactive: 10.8%
COc1cc(C(=O)NCC2(N(C)C)CCCCC2)c([N+](=O)[O-])cc1OC,"activity change, negative = substrate turnover",[1],inactive: -9.38%
